# Measured values taken from patent publication US12180252B2, “Peptide derived from PEP27 peptide and uses thereof” (priority 2021, dated 2024).
# Columns and labels:
# E. coli ATCC25922 = assay type: cell-based, Escherichia coli; details: E. coli ATCC25922, Gram-negative; 37° C., 18 hours
# Procedure: (§1) In order to evaluate the antimicrobial activity of the peptides prepared by the method of above 1, a minimal inhibitory concentration (MIC) value as the minimum concentration of a peptide, in which cells are not divided, was measured.
# (§2) Specifically, the strains shown in Table 3 below were purchased, cultured in a medium having a constitutional composition suitable for each strain to a mid-log phase, and then diluted to a concentration of 2×10^4 cells/100 μl to prepare the product on a micro-titration plate (Nunc, USA). Then, PEP27, PEP27-1, PEP27-2 or PEP27-5 peptide synthesized in the above 1 was added to each well by serial dilution ½ times, followed by incubation at 37° C. for 18 hours.
# E. coli CCARM1229 = assay type: cell-based, Escherichia coli; details: E. coli CCARM1229, antibiotics-tolerant; 37° C., 18 hours
# Procedure: as §1, §2
# P. aeruginosa ATCC27853 = details: P. aeruginosa ATCC27853, Gram-negative; 37° C., 18 hours
# Procedure: as §1, §2
# (§3) Specifically, subject strains were prepared by the method of above 2, and were treated with the antibiotics, that is, meropenem, ceftazidime, ceftriaxone or vancomycin, respectively, followed by determining MICs of the antibiotics.
# S. aureus ATCC25923 = details: S. aureus ATCC25923, Gram-positive; 37° C., 18 hours
# Procedure: as §1, §2, §3
# S. aureus ATCC29213 = details: S. aureus ATCC29213, Gram-positive; 37° C., 18 hours
# Procedure: as §1, §2, §3
# S. aureus MW2 = details: S. aureus MW2, antibiotics-tolerant; 37° C., 18 hours
# Procedure: as §1, §2, §3
# S. aureus USA300 = details: S. aureus USA300, antibiotics-tolerant; 37° C., 18 hours
# Procedure: as §1, §2, §3
compound,measurement,setting,value
CC[C@H](C)[C@H](NC(=O)CN)C(=O)NCC(=O)N[C@@H](C)C(=O)N[C@H](C(=O)N[C@@H](CC(C)C)C(=O)N[C@@H](CCCCN)C(=O)N[C@H](C(=O)N[C@@H](CC(C)C)C(=O)N[C@H](C(=O)N[C@H](C(=O)NCC(=O)N[C@@H](CC(C)C)C(=O)N1CCC[C@H]1C(=O)N[C@@H](C)C(=O)N[C@@H](CC(C)C)C(=O)N[C@H](C(=O)N[C@@H](CO)C(=O)N[C@@H](Cc1c[nH]c2ccccc12)C(=O)N[C@H](C(=O)N[C@@H](CCCCN)C(=O)N[C@@H](CCCNC(=N)N)C(=O)N[C@@H](CCCCN)C(=O)N[C@@H](CCCNC(=N)N)C(=O)N[C@@H](CCC(N)=O)C(=O)N[C@@H](CCC(N)=O)C(N)=O)[C@@H](C)CC)[C@@H](C)CC)[C@@H](C)O)[C@@H](C)O)C(C)C)C(C)C [Melittin],Minimal inhibitory concentration,E. coli ATCC25922,2 µM
same,Minimal inhibitory concentration,E. coli CCARM1229,2 µM
same,Minimal inhibitory concentration,P. aeruginosa ATCC27853,2 µM
same,Minimal inhibitory concentration,S. aureus ATCC25923,2 µM
same,Minimal inhibitory concentration,S. aureus ATCC29213,2 µM
same,Minimal inhibitory concentration,S. aureus MW2,4 µM
same,Minimal inhibitory concentration,S. aureus USA300,2 µM
